Test results from patent US20260226034A1 (The Rockefeller University, priority 2023, published 2026).
pIC50: −log10 of the molar value.

Test system: SARS-CoV-2 (strain USA-WA1/2020)
Test: SARS-CoV-2/Huh7.5 screening assay (nucleocapsid immunostaining, percentage of infected cells)
Settings: Huh7.5 cells, SARS-CoV-2 infection, 24 h

Structure (SMILES)	pIC50
Cc1c(S(=O)(=O)c2cc(F)c3[nH]ncc3c2)cc(C(=O)N[C@@H](C)c2cccc3cnn(C4CC4)c23)n1C (single isomer, unassigned) [B.87]	6.55
Cc1cc(S(=O)(=O)c2cc(C(=O)NCc3c(F)ccc4occc34)n(C)c2C)cc2cn[nH]c12 [A.1, N-[(5-fluorobenzofuran-4-yl)methyl]-1,5-dimethyl-4-[(7-methyl-1H-indazol-5-yl)sulfonyl]pyrrole-2-carboxamide]	8.30
Cc1c(S(=O)(=O)c2ccc3[nH]ncc3c2)cc(C(=O)NCc2c(F)ccc3occc23)n1C [A.2]	7.77
Cc1c(S(=O)(=O)c2ccc3[nH]ncc3c2)cc(C(=O)NCc2cccc3cnn(C)c23)n1C [A.3]	7.17
Cc1c(S(=O)(=O)c2ccc3c(cnn3C)c2)cc(C(=O)NCc2c(F)ccc3ncn(C4CC4)c23)n1C [A.4, N-[(3-cyclopropyl-5-fluoro-benzimidazol-4-yl)methyl]-1,5-dimethyl-4-(1-methylindazol-5-yl)sulfonyl-pyrrole-2-carboxamide]	7.12
Cc1c(S(=O)(=O)c2ccc3[nH]ncc3c2)cc(C(=O)NCc2cccc3cnn(C4CC4)c23)n1C [A.5]	6.68
Cc1c(S(=O)(=O)c2cccc(C#N)c2)cc(C(=O)NCc2cccc3cnn(C)c23)n1C [A.6, 4-(3-cyanophenyl)sulfonyl-1,5-dimethyl-N-[(1-methylindazol-7-yl)methyl]pyrrole-2-carboxamide]	6.64
Cc1c(S(=O)(=O)c2ccc3occc3c2)cc(C(=O)NCc2cccc3cnn(C)c23)n1C [A.8]	6.31
Cc1c(S(=O)(=O)c2ccc3[nH]ncc3c2)cc(C(=O)N[C@@H]2CCN(c3ncc(F)cn3)C2)n1C [A.34, N-[(3R)-1-(5-fluoropyrimidin-2-yl)pyrrolidin-3-yl]-4-(1H-indazol-5-ylsulfonyl)-1,5-dimethyl-pyrrole-2-carboxamide]	7.68
Cc1c(S(=O)(=O)c2ccc3[nH]ncc3c2)cc(C(=O)NC2CCN(c3ncc(F)cn3)CC2)n1C [A.35]	6.32
Cc1c(S(=O)(=O)c2ccc3[nH]ncc3c2)cc(C(=O)N[C@@H]2CCN(c3ncccc3C#N)C2)n1C [A.37]	7.24
Cc1c(S(=O)(=O)c2ccc3[nH]ncc3c2)cc(C(=O)NC2CN(c3ncc(F)cn3)C[C@@H]2F)n1C (stereo partly shown) [A.46]	7.10
Cc1c(S(=O)(=O)c2ccc3[nH]ncc3c2)cc(C(=O)N[C@@H]2CCN(c3ncc(F)cc3F)C2)n1C [A.54]	8.52
Cc1c(S(=O)(=O)c2ccc3[nH]ncc3c2)cc(C(=O)N[C@@H]2CCN(c3cccc4ccnn34)C2)n1C [A.55]	6.37
Cc1c(S(=O)(=O)c2ccc3[nH]ncc3c2)cc(C(=O)N[C@@H]2CCN(c3ccc(C#N)cc3)C2)n1C [A.57]	6.74
Cc1c(S(=O)(=O)c2ccc3[nH]ncc3c2)cc(C(=O)N[C@@H]2CCN(c3cccn4nccc34)C2)n1C [A.59]	6.68
Cc1c(S(=O)(=O)c2ccc3[nH]ncc3c2)cc(C(=O)N[C@@H]2CCN(c3ccn4nccc4c3)C2)n1C [A.60]	6.46
Cc1c(S(=O)(=O)c2ccc3[nH]ncc3c2)cc(C(=O)N[C@@H]2CCN(c3cccc4c3cnn4C)C2)n1C [A.61]	6.92
Cc1c(S(=O)(=O)c2ccc3[nH]ncc3c2)cc(C(=O)N[C@@H]2CCN(c3nccc(C(F)(F)F)n3)C2)n1C [A.66]	6.92
Cc1c(S(=O)(=O)c2ccc3[nH]ncc3c2)cc(C(=O)N[C@@H]2CCN(c3ccc(C#N)cn3)C2)n1C [A.72]	6.96
Cc1c(S(=O)(=O)c2ccc3[nH]ncc3c2)cc(C(=O)N[C@@H]2CCN(c3cncnc3)C2)n1C [A.73]	7.03
Cc1c(S(=O)(=O)c2ccc3[nH]ncc3c2)cc(C(=O)N[C@@H]2CCN(c3cc(C#N)ccn3)C2)n1C [A.79]	6.40
Cc1c(S(=O)(=O)c2ccc3[nH]ncc3c2)cc(C(=O)N[C@@H]2CCN(c3ccc(F)cc3C#N)C2)n1C [A.82]	7.15
COc1ccc(N2CC[C@@H](NC(=O)c3cc(S(=O)(=O)c4ccc5[nH]ncc5c4)c(C)n3C)C2)nn1 [A.88]	6.46
Cc1c(S(=O)(=O)c2ccc3[nH]ncc3c2)cc(C(=O)N[C@@H]2CCN(c3ncc(F)cn3)C2)n1CCO [A.90]	6.46
Cc1c(S(=O)(=O)c2ccc3[nH]ncc3c2)cc(C(=O)N[C@@H]2CCN(c3cnccc3C#N)C2)n1C [A.95]	7.00
Cc1c(S(=O)(=O)c2cccc(C#N)c2)cc(C(=O)NCc2c(F)ccc3cnn(C)c23)n1C [B.2]	7.28
Cc1c(S(=O)(=O)c2ccc3[nH]nc(F)c3c2)cc(C(=O)NCc2cccc3cnn(C)c23)n1C [B.12]	7.42

Structure (SMILES)	pIC50
Cc1c(S(=O)(=O)c2ccc3[nH]ncc3c2)cc(C(=O)NCc2cccc3c2N(C)C(=O)C3)n1C [B.13]	7.25
Cc1c(S(=O)(=O)c2ccc3[nH]ncc3c2)cc(C(=O)NCc2c(F)ccc3cnn(C4CC4)c23)n1C [B.16]	8.70
Cc1c(S(=O)(=O)c2ccc3[nH]ncc3c2)cc(C(=O)NCc2c(F)ccc3ncn(C4CC4)c23)n1C [B.18]	8.92
Cc1c(S(=O)(=O)c2ccc3[nH]ncc3c2)cc(C(=O)NCc2c(F)cccc2F)n1C [B.22]	8.06
Cc1c(S(=O)(=O)c2ccc3[nH]ncc3c2)cc(C(=O)NCc2nccc3cnn(C)c23)n1C [B.24]	6.54
Cc1c(S(=O)(=O)c2ccc3[nH]ncc3c2)cc(C(=O)NCc2cccc3c2CCC(=O)N3C)n1C [B.25]	7.24
Cc1cc(S(=O)(=O)c2cc(C(=O)NCc3c(F)ccc4ncn(C5CC5)c34)n(C)c2C)cc2cn[nH]c12 [B.27]	7.59
Cc1c(S(=O)(=O)c2ccc3[nH]ncc3c2)cc(C(=O)NCc2cccc3c2N(C)C(=O)C32CC2)n1C [B.32]	7.48
Cc1c(S(=O)(=O)c2ccc3[nH]ncc3c2)cc(C(=O)NCc2cccc3c2ccc(=O)n3C)n1C [B.33]	6.59
Cc1c(S(=O)(=O)c2ccc3[nH]ncc3c2)cc(C(=O)NCc2cccc3nnn(C)c23)n1C [B.34]	7.19
Cc1c(S(=O)(=O)c2ccc3[nH]ncc3c2)cc(C(=O)NCc2c(F)ccc3nnn(C)c23)n1C [B.43]	8.19
Cc1c(S(=O)(=O)c2ccc3[nH]ncc3c2)cc(C(=O)NCc2cncc3cnn(C)c23)n1C [B.49]	7.24
Cc1c(S(=O)(=O)c2cc(Cl)c3[nH]ncc3c2)cc(C(=O)NCc2cccc3cnn(C4CC4)c23)n1C [B.51]	7.89
Cc1c(S(=O)(=O)c2ccc3[nH]ncc3c2)cc(C(=O)NCc2c(F)ccc3c2N(C)C(=O)C3)n1C [B.52]	8.09
Cc1c(S(=O)(=O)c2cc(F)c3[nH]ncc3c2)cc(C(=O)NCc2c(F)ccc3cnn(C4CC4)c23)n1C [B.63]	8.17
Cc1c(S(=O)(=O)c2ccc3[nH]ncc3c2)cc(C(=O)NCc2cccc3nnn(C4CC4)c23)n1C [B.66]	6.82
Cc1c(S(=O)(=O)c2ccc3[nH]ncc3c2)cc(C(=O)NCc2c(F)ccc3nnn(C4CC4)c23)n1C [B.81]	7.89
Cc1c(S(=O)(=O)c2cc(F)c3[nH]ncc3c2)cc(C(=O)NCc2c(F)ccc3cnn(C4CC4)c23)n1CCO [B.89]	7.21
Cc1c(S(=O)(=O)c2cc(Cl)c3[nH]ncc3c2)cc(C(=O)NCc2ccnn2C)n1C [B.134]	6.46
Cc1c(S(=O)(=O)c2ccc3c(=O)[nH]ccc3c2)cc(C(=O)NCc2c(F)ccc3cnn(C4CC4)c23)n1C [B.136]	7.08
Cc1c(S(=O)(=O)c2ccc3[nH]ncc3c2)cc(C(=O)NCc2c(Cl)cnn2C)n1C [B.142]	6.72
Cc1c(S(=O)(=O)c2ccc3[nH]ncc3c2Cl)cc(C(=O)NCc2c(F)ccc3c2N(C)C(=O)C32CC2)n1C [B.143]	7.62
Cc1c(S(=O)(=O)c2ccc3[nH]ncc3c2)cc(C(=O)NCc2c(F)ccc3c2N(C)C(=O)C32CC2)n1C [B.145]	8.25
O=C(O)CCn1ncc2ccc(F)c(CNC(=O)c3cc(S(=O)(=O)c4cc(Cl)c5[nH]ncc5c4)c4n3CCC4)c21 [B.151]	6.60
Cc1c(S(=O)(=O)c2cc(Cl)c3[nH]ncc3c2)cc(C(=O)NCc2c(F)ccc3nnn(C4CC4)c23)n1C [B.153]	8.38
Cc1c(S(=O)(=O)c2ccc3[nH]ncc3c2)cc(C(=O)NCc2c(Cl)ccc(=O)n2C)n1C [B.174]	7.00
Cc1c(S(=O)(=O)c2ccc3[nH]ncc3c2)cc(C(=O)NCc2c(F)ccc(=O)n2C)n1C [B.179]	6.66
